Measured values as given in ChEMBL document CHEMBL4406913, “INCB050465 (Parsaclisib), a Novel Next-Generation Inhibitor of Phosphoinositide 3-Kinase Delta (PI3Kδ)” (ACS Med Chem Lett, 2019).

Molecular target: T1, Phosphatidylinositol 4,5-bisphosphate 3-kinase catalytic subunit delta isoform (Homo sapiens, UniProt O00329)
T1 sequence (O00329 whole entry): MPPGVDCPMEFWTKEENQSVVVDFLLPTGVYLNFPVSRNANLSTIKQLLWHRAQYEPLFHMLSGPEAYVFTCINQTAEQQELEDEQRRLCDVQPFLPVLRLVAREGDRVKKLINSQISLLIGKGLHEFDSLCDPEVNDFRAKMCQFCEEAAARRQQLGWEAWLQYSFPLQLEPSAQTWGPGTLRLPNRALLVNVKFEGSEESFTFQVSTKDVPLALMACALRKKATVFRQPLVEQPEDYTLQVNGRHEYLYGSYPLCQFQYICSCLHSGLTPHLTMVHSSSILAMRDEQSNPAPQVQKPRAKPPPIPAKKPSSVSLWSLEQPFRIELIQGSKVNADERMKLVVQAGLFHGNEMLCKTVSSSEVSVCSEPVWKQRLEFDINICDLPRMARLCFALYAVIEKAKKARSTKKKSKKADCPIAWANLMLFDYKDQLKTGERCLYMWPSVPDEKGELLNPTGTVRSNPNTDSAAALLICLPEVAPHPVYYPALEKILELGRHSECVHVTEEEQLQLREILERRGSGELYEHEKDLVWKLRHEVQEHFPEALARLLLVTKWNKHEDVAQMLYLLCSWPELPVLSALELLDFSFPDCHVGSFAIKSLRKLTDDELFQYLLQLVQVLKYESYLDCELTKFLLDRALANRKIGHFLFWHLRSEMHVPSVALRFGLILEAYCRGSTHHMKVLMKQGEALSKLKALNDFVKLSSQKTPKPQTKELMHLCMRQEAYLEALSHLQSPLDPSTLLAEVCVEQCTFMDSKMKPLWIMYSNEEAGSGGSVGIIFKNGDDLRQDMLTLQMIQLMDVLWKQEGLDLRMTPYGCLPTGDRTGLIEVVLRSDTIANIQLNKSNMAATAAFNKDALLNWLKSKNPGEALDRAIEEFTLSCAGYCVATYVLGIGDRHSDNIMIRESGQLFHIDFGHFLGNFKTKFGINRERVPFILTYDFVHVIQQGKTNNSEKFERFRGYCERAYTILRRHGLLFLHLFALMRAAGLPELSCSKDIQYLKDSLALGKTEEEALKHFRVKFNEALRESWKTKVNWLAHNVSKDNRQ

Cc1csc2nc([C@H](C)Nc3ncnc4[nH]cnc34)c(-c3cccc(F)c3)c(=O)n12 [DEZAPELISIB]
IC50: 3.4 nM
